Legend:
Experiment in all cases: biochemical
[1] = molecular target: Sodium-dependent serotonin transporter (Homo sapiens, UniProt P31645); format: cell-based, HEK293
[2] = molecular target: Sodium-dependent noradrenaline transporter (Homo sapiens, UniProt P23975)
[3] = molecular target: Sodium-dependent dopamine transporter (Homo sapiens, UniProt Q01959)

Sequences of proteins named here, by UniProt entry; tags and fusion partners are left off.
UniProt P31645, whole entry: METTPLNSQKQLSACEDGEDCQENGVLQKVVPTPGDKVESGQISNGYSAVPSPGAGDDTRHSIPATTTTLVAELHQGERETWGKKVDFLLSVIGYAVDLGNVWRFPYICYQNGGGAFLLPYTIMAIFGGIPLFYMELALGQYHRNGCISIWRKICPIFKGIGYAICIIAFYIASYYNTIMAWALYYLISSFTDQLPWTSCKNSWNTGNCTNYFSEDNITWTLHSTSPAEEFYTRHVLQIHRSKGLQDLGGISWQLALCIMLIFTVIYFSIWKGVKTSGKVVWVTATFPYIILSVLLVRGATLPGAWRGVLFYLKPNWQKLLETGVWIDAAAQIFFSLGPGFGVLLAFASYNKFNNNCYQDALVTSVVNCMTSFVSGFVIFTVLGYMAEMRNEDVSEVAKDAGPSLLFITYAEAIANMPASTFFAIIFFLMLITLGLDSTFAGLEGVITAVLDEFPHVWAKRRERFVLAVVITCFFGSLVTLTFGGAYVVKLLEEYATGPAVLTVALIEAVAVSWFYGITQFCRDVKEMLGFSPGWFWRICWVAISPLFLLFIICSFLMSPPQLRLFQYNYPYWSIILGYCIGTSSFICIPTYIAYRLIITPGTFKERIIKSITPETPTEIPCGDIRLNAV
UniProt P23975, whole entry: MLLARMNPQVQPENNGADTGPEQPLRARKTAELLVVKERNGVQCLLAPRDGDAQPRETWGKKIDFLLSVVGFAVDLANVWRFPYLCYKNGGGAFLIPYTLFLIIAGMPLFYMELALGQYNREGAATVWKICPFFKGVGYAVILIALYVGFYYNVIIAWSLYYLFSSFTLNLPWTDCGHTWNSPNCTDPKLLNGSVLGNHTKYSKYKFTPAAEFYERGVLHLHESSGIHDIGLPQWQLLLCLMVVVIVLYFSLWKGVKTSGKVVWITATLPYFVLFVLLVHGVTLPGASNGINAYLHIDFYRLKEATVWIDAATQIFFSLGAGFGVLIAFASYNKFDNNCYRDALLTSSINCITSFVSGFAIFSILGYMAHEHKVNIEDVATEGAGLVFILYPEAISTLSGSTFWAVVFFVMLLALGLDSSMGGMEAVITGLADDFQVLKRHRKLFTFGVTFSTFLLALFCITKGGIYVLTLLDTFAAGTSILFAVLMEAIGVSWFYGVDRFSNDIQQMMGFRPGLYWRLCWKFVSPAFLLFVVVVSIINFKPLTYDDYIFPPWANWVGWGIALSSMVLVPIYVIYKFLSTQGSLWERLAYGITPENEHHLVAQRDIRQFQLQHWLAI
UniProt Q01959, whole entry: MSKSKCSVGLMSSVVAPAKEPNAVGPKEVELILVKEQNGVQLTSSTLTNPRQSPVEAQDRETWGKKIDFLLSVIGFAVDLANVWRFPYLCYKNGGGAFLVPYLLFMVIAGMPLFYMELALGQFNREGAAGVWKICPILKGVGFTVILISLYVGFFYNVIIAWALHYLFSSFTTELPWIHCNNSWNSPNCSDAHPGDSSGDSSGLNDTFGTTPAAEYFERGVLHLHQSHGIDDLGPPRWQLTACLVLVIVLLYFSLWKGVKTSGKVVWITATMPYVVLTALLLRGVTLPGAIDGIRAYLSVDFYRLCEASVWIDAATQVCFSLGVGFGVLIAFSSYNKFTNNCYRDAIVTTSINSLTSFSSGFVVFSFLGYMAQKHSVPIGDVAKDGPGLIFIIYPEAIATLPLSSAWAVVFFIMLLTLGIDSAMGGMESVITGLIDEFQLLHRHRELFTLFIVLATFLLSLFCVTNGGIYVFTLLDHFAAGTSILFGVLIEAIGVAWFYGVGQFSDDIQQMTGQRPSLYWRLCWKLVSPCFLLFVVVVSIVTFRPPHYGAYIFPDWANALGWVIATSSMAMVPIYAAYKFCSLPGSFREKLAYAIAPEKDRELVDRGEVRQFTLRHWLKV

IC50 [1]: 17 nM | Ki [1]: 15 nM | IC50 [2]: 1500 nM | Ki [2]: > 650 nM | Ki [3]: > 854 nM
Structure (SMILES): CN(C)CC(c1ccc(O)cc1)C1(O)CCCCC1 (stereo not given) [DESVENLAFAXINE]

— ChEMBL document CHEMBL2384999, “Discovery of a potent, dual serotonin and norepinephrine reuptake inhibitor” (ACS Med Chem Lett, 2013)
